System: CN1CCC[C@H]1c1cccnc1
Test: purified protein
Details: FAD active site; hydrogen bond to T381 removed; pH 7.4; 22.0 °C

What does the source list for “Nicotine oxidoreductase (NicA2) (Pseudomonas putida S16; T381V)”?
Km: 0.317 µM; kcat: 0.011 s⁻¹; kcat/Km: 34700 M⁻¹ s⁻¹

Reference: article PMC6295333 (Biochemistry, 2018)
